From US11628186B2, “Method and composition for the reduction of viral replication, duration and spread of the COVID-19 and the flu” (priority 2017, dated 2023)

Tests used:
[1] = test system: patients with lung diseases including COPD; experiment: Comparison of inhaled salts of pyruvate, 5 ml of 0.5 mM solution (Table I)
[2] = test system: patients with lung diseases including COPD; experiment: Comparison of inhaled salts of pyruvate, 5 ml of 5 mM solution (Table II)
[3] = test system: patients with sinus & lung diseases including IPF and COPD; experiment: Salts of pyruvate as 20 mM nasal sprays (Table IX); conditions: 20 mM (0.22%) nasal spray in 0.9% sodium chloride
[4] = 5 ml of 0.5 mM solution, inhaled

Row | Substance | Irritation [1, 4] | Irritation ([1]; inhaled into the lungs) | Irritation [2] | Irritation [3]
1 | aluminum pyruvate | Yes | irritating | Yes | Yes
2 | manganese pyruvate | Yes | irritating | Yes | Yes
